Earlier results on 1 substance are cited in patent US20100278751A1, “RADIOLABELED 2-AMINO-4-ALKYL-6-(HALOALKYL)PYRIDINE COMPOUNDS AND THEIR USE IN DIAGNOSTIC IMAGING” (WASHINGTON UNIVERSITY, priority 2009, published 2010).

In this series the target is iNOS (Homo sapiens, UniProt P35228). To be noted: reported value for standards; cited from earlier work.

With “L-N^6-iminoethyl-lysine [L-NIL, reference compound]”, the IC50 was 1400 nM.

The IC50 is the concentration at which inhibition is half-maximal.
